Test results as given in patent publication US10202345B2, “Substituted azaspiro(4.5)decane derivatives” (priority 2014, dated 2019).

Chains of the proteins cited; added tags and fusions are not shown. Lines headed by an entry give the natural chain unless they say otherwise; changes in a name come on top.
UniProt P35372, whole entry, looked up: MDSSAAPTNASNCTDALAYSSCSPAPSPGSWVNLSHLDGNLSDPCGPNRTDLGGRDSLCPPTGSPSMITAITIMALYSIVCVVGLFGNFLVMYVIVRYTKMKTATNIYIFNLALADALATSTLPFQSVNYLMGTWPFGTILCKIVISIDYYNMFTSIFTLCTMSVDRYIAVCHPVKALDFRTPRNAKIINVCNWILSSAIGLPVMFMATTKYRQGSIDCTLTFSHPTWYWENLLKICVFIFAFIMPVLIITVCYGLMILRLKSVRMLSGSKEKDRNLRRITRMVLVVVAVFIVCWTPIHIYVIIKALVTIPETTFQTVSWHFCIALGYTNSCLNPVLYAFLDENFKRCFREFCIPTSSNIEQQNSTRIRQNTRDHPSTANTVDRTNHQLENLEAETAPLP
UniProt P41146: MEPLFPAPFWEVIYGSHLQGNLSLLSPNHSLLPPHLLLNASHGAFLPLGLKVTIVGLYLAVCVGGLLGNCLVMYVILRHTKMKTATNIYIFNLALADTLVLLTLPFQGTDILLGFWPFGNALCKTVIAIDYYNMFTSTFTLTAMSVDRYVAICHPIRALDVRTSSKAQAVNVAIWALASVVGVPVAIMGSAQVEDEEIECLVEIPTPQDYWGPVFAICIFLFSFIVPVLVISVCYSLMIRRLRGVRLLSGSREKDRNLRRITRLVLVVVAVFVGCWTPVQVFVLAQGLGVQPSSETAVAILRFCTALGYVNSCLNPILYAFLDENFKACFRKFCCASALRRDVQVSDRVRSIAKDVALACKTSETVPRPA

How the values were obtained:
[1] = biological target: human μ opiate receptor (Homo sapiens, UniProt P35372); assay: μ opiate receptor binding assay with [3H]-naloxone (WGA-SPA beads); conditions: for Ki: read-out: Ki (μ) mean [μm], mean; for % inhibition (μ) [1 μM]: test concentration 1 μM
[2] = biological target: ORL1 receptor (Homo sapiens, UniProt P41146); assay: ORL1 receptor binding assay with 3H-nociceptin/orphanin FQ (WGA-SPA beads); conditions: for Ki: read-out: Ki (ORL1) mean, mean; for % inhibition (ORL1) [1 μM]: test concentration 1 μM

Structure (SMILES) | Ki [1] [nM] | % inhibition (μ) [1 μM] [1] [%] | Ki [2] [nM] | % inhibition (ORL1) [1 μM] [2] [%]
CCCCC1(N(C)C)CCC2(CCN(C(=O)CC3CC3)C2)CC1 (centres unmarked) | 17 | 90.5 | 44 | 61.5
CN(C)C1(c2cccs2)CCC2(CCN(CC3CCOCC3)C2)CC1 (centres unmarked) | 4.9 | 99 | 4.45 | 95
CN(C)C1(c2ccccc2)CCC2(CCN(C(=O)C3(C#N)CCC3)C2)CC1 (centres unmarked) | 30 | 93 | 73 | 72
CN(C)C1(C2CCCC2)CCC2(CC1)CC(=O)N(CCC1CCC1)C2 (centres unmarked) | 1.55 | 100 | 16 | 91.5
CN(C)C1(C2CCCC2)CCC2(CC1)CC(=O)N(CC1CC1)C2 (centres unmarked) | 16.5 | 95 | 21 | 73.5
CN(C)C1(c2cccs2)CCC2(CCN(C(=O)C3(C#N)CCC3)C2)CC1 (centres unmarked) | 7.15 | 96.5 | 20 | 78
CN(C)C1(c2cccs2)CCC2(CCN(CC3COC3)C2)CC1 (centres unmarked) | 22 | 94.5 | 30.5 | 84.5
COC1(CCN2CC3(CCC(C4CCCC4)(N(C)C)CC3)CC2=O)CCC1 (centres unmarked) | 1.05 | 99 | 27 | 83
CN(C)C1(c2cccs2)CCC2(CCN(C(=O)C3CCOCC3)C2)CC1 (centres unmarked) | 21.5 | 93.5 | 36 | 77
Cc1ccc(C2(N(C)C)CCC3(CC2)CC(=O)N(CC2CC2)C3)s1 (centres unmarked) | 1130 | 44 | 455 | 33
COCCC(=O)N1CCC2(CCC(c3ccccc3)(N(C)C)CC2)C1 (centres unmarked) | 5.9 | 97.5 | 8.8 | 92
COC(C)CCN1CC2(CCC(c3cccs3)(N(C)C)CC2)CC1=O (centres unmarked) | 1.5 | 99 | 2.7 | 92.5
CCOCCN1CC2(CCC(c3ccccc3)(N(C)C)CC2)CC1=O (centres unmarked) | 4.3 | 97.5 | 3.75 | 96
CCCCN1CC2(CCC(C3CCCC3)(N(C)C)CC2)CC1=O (centres unmarked) | 8.7 | 99.5 | 63.5 | 75.5
CN(C)C1(c2cccs2)CCC2(CCN(C(=O)CC3COC3)C2)CC1 (centres unmarked) | 3.05 | 99.33 | 19.7 | 82.5
CCCCC1(N(C)C)CCC2(CCN(C(=O)CCC3CC3)C2)CC1 (centres unmarked) | 16 | 98 | 40.5 | 66.5
CCOC(C)CC(=O)N1CCC2(CCC(c3cccs3)(N(C)C)CC2)C1 (centres unmarked) | 1 | 101 | 4.6 | 93
CC(CO)CN1CCC2(CCC(C3CCCC3)(N(C)C)CC2)C1 (centres unmarked) | 49.5 | 90.5 | 71 | 66
CN(C)C1(c2ccc(Cl)s2)CCC2(CCNC2=O)CC1 (centres unmarked) | 2550 | 31.5 |  | 15
CN(C)C1(C2CCCC2)CCC2(CCN(C(=O)CC(C)(C)C#N)C2)CC1 (centres unmarked) | 62 | 95.5 | 62 | 67
CN(C)C1(c2ccccc2)CCC2(CCN(C(=O)CC(C)(C)C#N)C2)CC1 (centres unmarked) | 3.1 | 97.5 | 2.85 | 97.5
CN(C)C1(c2cccs2)CCC2(CCN(CC3(C#N)CCC3)C2)CC1 (centres unmarked) | 1.45 | 99 | 3.2 | 91
CN(C)C1(c2ccccc2)CCC2(CCN(CCC3COC3)C2)CC1 (centres unmarked) | 11 | 99.5 | 31 | 91.5
CCCCN1CCC2(CCC(CC3CCCCC3)(N(C)C)CC2)C1 (centres unmarked) | 5.3 | 102.5 | 800 | 35.5
CN(C)C1(C2CCCC2)CCC2(CCN(CC3CC3)C2)CC1 (centres unmarked) | 17 | 88.67 | 11 | 82.5
CN(C)C1(c2ccccc2)CCC2(CCN(CC(C)(C)O)C2)CC1 (centres unmarked) | 44.5 | 87 | 25 | 66
CCCCC1(N(C)C)CCC2(CCN(C(=O)CCC(C)(C)OC)C2)CC1 (centres unmarked) | 12.1 | 96.5 | 58 | 60.5
